Experimental findings from ChEMBL document CHEMBL1907987, “Human UDP-glucuronosyltransferases: metabolism, expression, and disease” (Annu Rev Pharmacol Toxicol, 2000) are described below.

By UniProt entry, the sequences of proteins in these tests, tags left out. Residues count along the entry.
UniProt P16662, 24-529 limits assumed: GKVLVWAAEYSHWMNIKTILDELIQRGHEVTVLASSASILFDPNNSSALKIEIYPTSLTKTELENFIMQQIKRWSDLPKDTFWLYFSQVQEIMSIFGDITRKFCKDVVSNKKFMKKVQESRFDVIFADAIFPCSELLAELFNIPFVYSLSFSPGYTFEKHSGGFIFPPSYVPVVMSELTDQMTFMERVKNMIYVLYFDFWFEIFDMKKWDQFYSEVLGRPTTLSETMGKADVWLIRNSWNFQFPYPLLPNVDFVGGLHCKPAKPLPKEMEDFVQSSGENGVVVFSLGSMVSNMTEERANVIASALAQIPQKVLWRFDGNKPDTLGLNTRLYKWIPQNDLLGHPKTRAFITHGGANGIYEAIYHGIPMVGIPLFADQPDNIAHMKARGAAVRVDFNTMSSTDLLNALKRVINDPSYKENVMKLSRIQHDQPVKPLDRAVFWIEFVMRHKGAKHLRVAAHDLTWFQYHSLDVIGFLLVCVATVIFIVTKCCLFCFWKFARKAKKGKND

Data set [1] has as its target T1, UDP-glucuronosyltransferase 2B7 (Homo sapiens, UniProt P16662). In words: Specific activity of expressed human recombinant UGT2B7H. The format is ADME. The settings on record: recombinant enzyme.
Data set [2] addresses T1, UDP-glucuronosyltransferase 2B7. Description: Specific activity of expressed human recombinant UGT2B7Y. In kind it is ADME. The settings on record: recombinant enzyme.

“And” between values parts separate entries of the source, which are not always exact repeats. Equal values may be shown once.

As for `CO[C@]12CC[C@@]3(C[C@@H]1C(C)(C)O)[C@H]1Cc4ccc(O)c5c4[C@@]3(CCN1CC1CC1)[C@H]2O5`, the Activity was 257 pm/min/mg and 180 pm/min/mg in data set [1]; 384 pm/min/mg in data set [2].

In the case of `CO[C@]12CC[C@@]3(C[C@@H]1[C@](C)(O)C(C)(C)C)[C@H]1Cc4ccc(O)c5c4[C@@]3(CCN1)[C@H]2O5`, the Activity in data set [2] was found to be 90 pm/min/mg.
